Test system: Glycine
Test: Fluorescent ligand binding, glycine receptor (strychnine-insensitive)
Conditions: result in words

activity/usefulness in an assay for binding as measured using the fluorescent label: active and useful
SMILES: O=C(NCCCCCCNc1ccc([N+](=O)[O-])c2nonc12)c1cc(O)c2c(Cl)cc(Cl)cc2n1 [PDC 002.083]

Reference: patent publication US5576436A, “Fluorescent ligands” (Pharmaceutical Discovery Corporation, priority 1994, dated 1996)
